Experimental findings from US20230227534A1, “METHOD FOR GENERATING VARIANTS OF A PROTEIN” (ECOLE POLYTECHNIQUE FEDERALE DE LAUSANNE (EPFL), priority 2019, published 2023) are described below.

Chains of the proteins cited; added tags and fusions are not shown. Lines headed by an entry give the natural chain unless they say otherwise; changes in a name come on top.
UniProt P14416: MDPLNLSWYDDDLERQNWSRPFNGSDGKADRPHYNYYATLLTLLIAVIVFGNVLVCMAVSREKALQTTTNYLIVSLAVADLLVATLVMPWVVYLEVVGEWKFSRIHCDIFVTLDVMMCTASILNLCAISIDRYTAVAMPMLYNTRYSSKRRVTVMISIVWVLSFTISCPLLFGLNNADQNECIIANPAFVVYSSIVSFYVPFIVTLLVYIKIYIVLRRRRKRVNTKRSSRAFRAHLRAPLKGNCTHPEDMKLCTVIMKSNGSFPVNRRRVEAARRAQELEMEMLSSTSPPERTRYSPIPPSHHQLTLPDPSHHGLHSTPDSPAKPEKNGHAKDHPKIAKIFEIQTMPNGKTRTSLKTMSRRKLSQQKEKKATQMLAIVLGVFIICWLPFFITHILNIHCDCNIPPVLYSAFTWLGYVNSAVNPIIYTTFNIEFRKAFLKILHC

For this assay, the target named is T1, D2 receptor (Homo sapiens, UniProt P14416, T205I).
T1 construct: made in house; host or cells: HEK293T (receptor, transient transfection, anti-HA partial purification); Sf9 (Gi2)
Put plainly: in vitro measurements of D2 activation (constitutive time course; agonist induced dose response). It is filed as biochemical. The following applies: ligand free, FIG. 1 top panel. The source says: Regarding the T205I mutation, since ΔG-stability/ΔΔEs >0, the protein obtained by the method of the invention should have an increased constitutive activity compared to the native receptor. […] Therefore, the present invention allows to generate a D2 receptor stabilized in specific states, here in state A.
Regarding the T205M mutation, since ΔG-coupling/ΔΔEc >0, the protein obtained by the method of the invention should have a higher sensitivity for the ligand binding (ligand = dopamine and serotonin).
G protein activation assays. D2DR variants were assayed for their ability to induce guanine nucleotide exchange by the G protein Gi2. To measure constitutive activity the reaction mixture consisted of 4 uM Gi2, 20 uM of [^35S]-GTPγS mix, 50 mM Tris-HCI, pH 7.2, 100 mM NaCl, 4 mM MgCl2, 1 mM dithiothreitol. Receptor concentrations were ~10 nM per sample. Reactions were started by adding 150 uL partially purified receptor samples to 300 uL of reaction mixture and incubating on ice over a period of time from 0-30 minutes for timecourse measurements. To measure ligand induced D2DR activities, increasing amounts of dopamine or spiperone were added to the reaction mixtures. […] Radioactivity counts were measured on a Beckman LS6000 scintillation counter. Statistical significance of differences in constitutive or ligand-induced activities was assessed by student t-tests.

B1: T205I: dopamine D2 receptor variant, Threonine 205 to Isoleucine, stability microswitch (protein)
chain: MYPYDVPDYAYPYDVPDYAYPYDVPDYADDPLNLSWYDDDLERQNWSRPFNGSDGKADRPHYNYYATLLTLLIAVIVFGNVLVCMAVSREKALQTTTNYLIVSLAVADLLVATLVMPWVVYLEVVGEWKFSRIHCDIFVTLDVMMCTASILNLCAISIDRYTAVAMPMLYNTRYSSKRRVTVMISIVWVLSFTISCPLLFGLNNADQNECIIANPAFVVYSSIVSFYVPFIVILLVYIKIYIVLRRRRKRVNTKRSSRAFRAHLRAPLKGNCTHPEDMKLCTVIMKSNGSFPVNRRRVEAARRAQELEMEMLSSTSPPERTRYSPIPPSHHQLTLPDPSHHGLHSTPDSPAKPEKNGHAKDHPKIAKIFEIQTMPNGKTRTSLKTMSRRKLSQQKEKKATQMLAIVLGVFIICWLPFFITHILNIHCDCNIPPVLYSAFTWLGYVNSAVNPIIYTTFNIEFRKAFLKILHC
Take B1: the “constitutive activity compared to the native receptor” value is “increased”.
